# Binding of CDR-mutated scFvs to a peptide of the spike HR2 region

The target is the same throughout: PDVDLGDISGINAS, from the HR2 region of SARS-CoV-2 spike.

Each scFv is VL, three GGGGS repeats, VH, as in the parent Ab-91, and differs from it in the CDRs of the heavy chain only.
VL: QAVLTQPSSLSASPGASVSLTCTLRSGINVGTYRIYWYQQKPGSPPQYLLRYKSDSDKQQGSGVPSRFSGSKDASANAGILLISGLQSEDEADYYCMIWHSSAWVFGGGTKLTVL
VH: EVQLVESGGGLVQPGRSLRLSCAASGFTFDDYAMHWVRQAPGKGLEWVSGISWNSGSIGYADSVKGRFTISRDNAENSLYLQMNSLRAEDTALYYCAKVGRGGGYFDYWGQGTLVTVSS

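The parent was found by panning a naive human phage display library on the peptide. The library (AAYL51) carries one to three amino acid substitutions per variant, with no insertions or deletions. Affinity was read by AlphaSeq, a pooled yeast mating assay with surface-displayed partners. After mating in shaken culture at 30 °C for 16 h, diploids were selected and their barcode pairs sequenced. The ratio of observed to expected reads was calibrated, replicate by replicate, on BCL2-family standards whose Kd was known from biolayer interferometry. Each pool was mated in three replicate cultures.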

Each variant's VH is given in full.
Scale: log10 of Kd in nM, estimated from mating counts; low values are strong binders.
A pair that was not seen in that replicate is written "nd"; this usually means weak binding, but a binder can also be missed.

VH	log10 Kd, replicates	control signals
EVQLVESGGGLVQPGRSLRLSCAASGFTFDDYAMHWVRQAPGKGLEWVSGISWNSGITGYADSVKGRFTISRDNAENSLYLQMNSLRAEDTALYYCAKVGRGGWYFDYWGQGTLVTVSS	1.39 / 1.46 / 0.93	2 of 9 (5.21)
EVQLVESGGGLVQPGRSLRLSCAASDTTFDDYAMHWVRQAPGKGLEWVSGISWNSGSIGYADSVKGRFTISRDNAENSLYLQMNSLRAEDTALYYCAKVGLGGGYFDYWGQGTLVTVSS	nd / nd / nd	0 of 9
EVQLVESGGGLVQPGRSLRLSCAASGFTFDNYAMHWVRQAPGKGLEWVSGISWNSPNIGYADSVKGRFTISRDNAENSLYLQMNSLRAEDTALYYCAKVGRGGGYFDYWGQGTLVTVSS	3.53 / 4.12 / nd	2 of 9 (3.50)
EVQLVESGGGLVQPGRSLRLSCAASGFTFDDYAMHWVRQAPGKGLEWVSGQSWNSGSIGYAFSVTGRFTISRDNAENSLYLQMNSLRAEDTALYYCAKVGRGGGYFDYWGQGTLVTVSS	nd / nd / nd	0 of 9
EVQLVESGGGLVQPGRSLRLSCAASGFTFDSYQMHWVRQAPGKGLEWVSGISWNSGSIGYADSVKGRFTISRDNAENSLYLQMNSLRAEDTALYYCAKVGRGGGYFWYWGQGTLVTVSS	nd / 5.49 / nd	4 of 9 (3.91)
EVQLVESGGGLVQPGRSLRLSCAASGFTFDYYAMHWVRQAPGKGLEWVSGISWCSGSIGYADSVQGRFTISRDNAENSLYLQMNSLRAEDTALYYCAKVGRGGGYFDYWGQGTLVTVSS	3.15 / 2.08 / nd	0 of 9
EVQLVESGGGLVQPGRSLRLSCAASGFTFDMYAMHWVRQAPGKGLEWVSGISWNSGSIGYADSVKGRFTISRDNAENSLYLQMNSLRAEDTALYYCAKMGRGGGCFDYWGQGTLVTVSS	0.64 / 0.64 / 0.33	4 of 9 (4.51)
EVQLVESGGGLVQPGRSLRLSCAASGFTFDDYAMHWVRQAPGKGLEWVSGISWFSGSKGYADDVKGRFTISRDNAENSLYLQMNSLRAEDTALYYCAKVGRGGGYFDYWGQGTLVTVSS	nd / nd / 4.54	1 of 9 (3.78)
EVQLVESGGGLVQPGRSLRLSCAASGVTMDDYAMHWVRQAPGKGLEWVSGISHNSGSIGYADSVKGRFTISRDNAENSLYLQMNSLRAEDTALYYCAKVGRGGGYFDYWGQGTLVTVSS	nd / nd / nd	1 of 9 (2.24)
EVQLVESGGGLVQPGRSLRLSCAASAFTFDDYAMHWVRQAPGKGLEWVSGISWNSGSIGYADSVKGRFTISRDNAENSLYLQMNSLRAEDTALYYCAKVIRCGGYFDYWGQGTLVTVSS	nd / nd / nd	0 of 9
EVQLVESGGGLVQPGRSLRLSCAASGFSADDYARHWVRQAPGKGLEWVSGISWNSGSIGYADSVKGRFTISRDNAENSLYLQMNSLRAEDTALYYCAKVGRGGGYFDYWGQGTLVTVSS	2.87 / nd / nd	0 of 9
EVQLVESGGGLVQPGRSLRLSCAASGFVFDDYAMHWVRQAPGKGLEWVSGISWNSGSIGYADSVKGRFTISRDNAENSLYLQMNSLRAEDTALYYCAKVGRGGLYFDYWGQGTLVTVSS	5.04 / 4.97 / nd	2 of 9 (4.74)
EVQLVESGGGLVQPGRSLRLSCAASGFTFDDYYMHWVRQAPGKGLEWVSGISWNSGSIGYADSVKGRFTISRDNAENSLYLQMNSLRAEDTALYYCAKVGRGGGYFDYWGQGTLVTVSS	nd / nd / nd	1 of 9 (3.96)
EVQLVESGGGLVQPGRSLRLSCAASGFTFDDYAMHWVRQAPGKGLEWVSGISWNSGSIGYADSVIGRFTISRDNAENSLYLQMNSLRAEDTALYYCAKVARGGGFFDYWGQGTLVTVSS	2.66 / 3.52 / nd	1 of 9 (3.43)
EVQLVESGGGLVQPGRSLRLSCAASGFTWDDYAMHWVRQAPGKGLEWVSGFSWNSGSIGYADSVKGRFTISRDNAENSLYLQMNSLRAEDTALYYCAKVGRNGGYFDYWGQGTLVTVSS	5.43 / 5.56 / 3.95	5 of 9 (4.67)
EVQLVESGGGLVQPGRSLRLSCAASGFTFDDYAMHWVRQAPGKGLEWVSGIIWNSGSIGYADSVKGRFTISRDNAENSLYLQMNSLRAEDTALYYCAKHHRGGGYFDYWGQGTLVTVSS	5.30 / 5.01 / 5.86	6 of 9 (4.89)
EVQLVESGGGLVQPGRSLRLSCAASWFTFDDYAMHWVRQAPGKGLEWVSGISWNSESIGYADSVKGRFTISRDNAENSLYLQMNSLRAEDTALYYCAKVGRGGGYFDYWGQGTLVTVSS	nd / nd / nd	0 of 9
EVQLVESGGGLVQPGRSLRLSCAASGFTFDKYSMHWVRQAPGKGLEWVSGISWNSGSIGYADEVKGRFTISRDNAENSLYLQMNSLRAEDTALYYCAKVGRGGGYFDYWGQGTLVTVSS	1.15 / 1.09 / 0.68	7 of 9 (5.04)
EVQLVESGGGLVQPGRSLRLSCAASGFTFDDYAMSWVRQAPGKGLEWVSGISWNSTSIGYADSVKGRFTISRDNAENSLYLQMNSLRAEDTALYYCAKVGRRGGYFDYWGQGTLVTVSS	nd / nd / nd	4 of 9 (4.23)

Excerpt, the final 2 entries:

{"VH": "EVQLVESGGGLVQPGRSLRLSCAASGFTFDKYSMHWVRQAPGKGLEWVSGISWNSGSIGYADEVKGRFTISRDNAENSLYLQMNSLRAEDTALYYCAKVGRGGGYFDYWGQGTLVTVSS", "log10 Kd, replicates": "1.15 / 1.09 / 0.68", "control signals": "7 of 9 (5.04)"}
{"VH": "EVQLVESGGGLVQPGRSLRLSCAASGFTFDDYAMSWVRQAPGKGLEWVSGISWNSTSIGYADSVKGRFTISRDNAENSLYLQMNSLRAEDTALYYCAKVGRRGGYFDYWGQGTLVTVSS", "log10 Kd, replicates": "nd / nd / nd", "control signals": "4 of 9 (4.23)"}

Three control strains display no target. For library AAYL51, 21% of the pairings with them gave a signal, with a median of 4.54 and one signal in twenty below 3.26, so weak values seen in few replicates may be background. Also given: how often the same scFv was detected with the empty control strains, with their mean in brackets.

The measurements come from Engelhart et al. 2022 (doi:10.1038/s41597-022-01779-4) through the FLAb antibody collection.